Patent US20070196886A1 (priority 2004, published 2007)
Like-named read-outs stand apart in the source and are kept apart here.

The chains behind the UniProt entries cited, without tags or fusion partners.
UniProt P0A8T7, whole entry: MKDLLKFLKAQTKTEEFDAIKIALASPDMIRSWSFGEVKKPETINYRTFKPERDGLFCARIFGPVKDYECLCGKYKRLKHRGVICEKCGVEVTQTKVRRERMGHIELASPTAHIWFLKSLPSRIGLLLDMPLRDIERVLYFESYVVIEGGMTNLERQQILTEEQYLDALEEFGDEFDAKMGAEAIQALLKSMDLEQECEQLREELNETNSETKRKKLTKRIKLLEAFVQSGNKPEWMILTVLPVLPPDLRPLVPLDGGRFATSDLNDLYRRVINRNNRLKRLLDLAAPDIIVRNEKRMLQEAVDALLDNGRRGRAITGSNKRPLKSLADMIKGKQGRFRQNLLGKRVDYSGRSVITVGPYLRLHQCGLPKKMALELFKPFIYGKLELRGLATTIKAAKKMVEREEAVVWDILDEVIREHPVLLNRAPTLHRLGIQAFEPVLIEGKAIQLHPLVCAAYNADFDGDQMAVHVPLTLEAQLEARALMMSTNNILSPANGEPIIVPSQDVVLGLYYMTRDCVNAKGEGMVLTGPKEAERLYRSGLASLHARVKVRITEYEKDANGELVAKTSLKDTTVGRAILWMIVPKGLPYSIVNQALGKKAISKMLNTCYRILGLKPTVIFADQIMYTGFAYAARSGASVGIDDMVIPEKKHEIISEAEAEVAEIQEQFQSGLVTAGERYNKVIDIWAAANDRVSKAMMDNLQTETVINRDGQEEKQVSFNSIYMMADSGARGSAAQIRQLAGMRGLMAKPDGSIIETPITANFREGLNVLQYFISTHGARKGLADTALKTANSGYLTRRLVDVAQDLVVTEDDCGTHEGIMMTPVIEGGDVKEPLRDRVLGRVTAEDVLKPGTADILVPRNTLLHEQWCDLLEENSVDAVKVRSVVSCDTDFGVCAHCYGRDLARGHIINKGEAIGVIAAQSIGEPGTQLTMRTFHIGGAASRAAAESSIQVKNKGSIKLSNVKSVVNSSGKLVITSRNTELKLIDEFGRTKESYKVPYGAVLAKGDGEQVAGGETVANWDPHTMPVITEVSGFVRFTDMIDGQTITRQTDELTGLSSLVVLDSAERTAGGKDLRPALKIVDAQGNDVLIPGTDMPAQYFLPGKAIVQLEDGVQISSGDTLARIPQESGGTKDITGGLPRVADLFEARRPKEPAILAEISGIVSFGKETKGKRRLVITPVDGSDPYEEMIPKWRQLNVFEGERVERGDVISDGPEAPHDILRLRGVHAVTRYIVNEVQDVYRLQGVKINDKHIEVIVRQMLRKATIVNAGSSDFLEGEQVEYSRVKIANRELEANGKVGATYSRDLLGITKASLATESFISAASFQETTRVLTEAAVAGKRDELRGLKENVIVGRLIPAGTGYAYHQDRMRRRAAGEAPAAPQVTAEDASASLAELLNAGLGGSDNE
UniProt P0A8V2, whole entry: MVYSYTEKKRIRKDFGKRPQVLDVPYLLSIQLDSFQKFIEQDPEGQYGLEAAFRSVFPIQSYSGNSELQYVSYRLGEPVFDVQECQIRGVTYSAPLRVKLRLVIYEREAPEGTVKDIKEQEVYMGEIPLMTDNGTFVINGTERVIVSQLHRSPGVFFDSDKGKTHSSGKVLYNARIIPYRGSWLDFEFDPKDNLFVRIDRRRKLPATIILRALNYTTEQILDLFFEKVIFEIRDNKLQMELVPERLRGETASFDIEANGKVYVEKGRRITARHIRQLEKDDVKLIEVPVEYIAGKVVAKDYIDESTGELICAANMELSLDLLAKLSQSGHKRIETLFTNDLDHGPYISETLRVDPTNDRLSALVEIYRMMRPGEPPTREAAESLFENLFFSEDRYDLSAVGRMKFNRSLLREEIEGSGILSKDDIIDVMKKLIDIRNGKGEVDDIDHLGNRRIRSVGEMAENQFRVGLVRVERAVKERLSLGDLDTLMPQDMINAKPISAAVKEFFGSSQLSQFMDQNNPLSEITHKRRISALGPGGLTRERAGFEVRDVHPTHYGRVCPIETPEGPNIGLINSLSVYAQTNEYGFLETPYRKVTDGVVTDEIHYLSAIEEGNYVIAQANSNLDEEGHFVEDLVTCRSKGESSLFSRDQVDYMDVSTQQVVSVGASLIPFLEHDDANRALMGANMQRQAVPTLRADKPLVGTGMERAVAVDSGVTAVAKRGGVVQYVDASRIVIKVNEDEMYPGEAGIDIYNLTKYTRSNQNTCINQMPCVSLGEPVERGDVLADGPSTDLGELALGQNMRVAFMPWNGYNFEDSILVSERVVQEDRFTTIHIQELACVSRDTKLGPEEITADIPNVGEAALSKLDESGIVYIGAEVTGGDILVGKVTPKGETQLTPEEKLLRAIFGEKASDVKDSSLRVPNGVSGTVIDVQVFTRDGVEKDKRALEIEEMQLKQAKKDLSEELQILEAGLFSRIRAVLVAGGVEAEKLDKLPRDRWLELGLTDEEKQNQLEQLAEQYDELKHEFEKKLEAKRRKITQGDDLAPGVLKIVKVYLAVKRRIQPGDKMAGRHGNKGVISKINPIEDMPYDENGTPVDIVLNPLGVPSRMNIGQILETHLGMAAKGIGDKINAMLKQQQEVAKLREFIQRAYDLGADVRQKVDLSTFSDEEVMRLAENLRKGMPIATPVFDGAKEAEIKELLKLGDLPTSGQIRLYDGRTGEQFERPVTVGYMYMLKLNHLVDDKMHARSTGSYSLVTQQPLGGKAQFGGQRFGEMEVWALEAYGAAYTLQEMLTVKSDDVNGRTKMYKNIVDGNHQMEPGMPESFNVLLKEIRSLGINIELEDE

Assays:
RNAP holoenzyme [1] = target: T1, RNAP holoenzyme (Escherichia coli, UniProt P0A8T7+P0A8V2); assay type: biochemical; conditions: partial-competitive model; 3-mer and 4-mer abortive products; FIG. 3E
Method: Following 15 min at 37° C., 0.5 μl 1 mg/ml heparin was added, and, following a further 2 min at 37° C., RNA synthesis was initiated by addition of 2 μl 5 mM ApA and 125 μM (or 250 μM, 500 μM, and 1 mM) each of [α-^32P]UTP (0.6 Bq/fmol), ATP, CTP, GTP. Following 5 min at 37° C., reactions were terminated by addition of 10 μl 80% formamide, 10 mM EDTA, 0.04% bromophenol blue, and 0.04% xylene cyanol. Products were heated 10 min at 90° C., resolved by urea-PAGE (Sambrook and Russel, (2001)), and quantified using a storage-phosphor scanner (Storm 860; Molecular Dynamics). Identities of tri- and tetranucleotide abortive products were defined as in Borowiec and Gralla, (1985) J. Mol. Biol. 184, 587-598). Data were fit to full-competitive, partial-competitive, full-noncompetitive, partial-noncompetitive, full-uncompetitive, partial-uncompetitive, full-mixed, and partial-mixed models of inhibition using the Fit-To-Model feature of the SigmaPlot Enzyme Kinetics Module (SPSS).

DAC-σ^70 RNAP holoenzyme = target: T2, DAC-σ^70 RNAP holoenzyme (Escherichia coli, UniProt P0A8T7+P0A8V2); assay type: binding; conditions: read-out: equilibrium dissociation constant, Kd
T2 construct: made in house; host or cells: E. coli (core as in Niu et al. 1996; σ^70 derivative as in Mukhopadhyay et al. 2001)

RNAP holoenzyme [2] = target: T1, RNAP holoenzyme; assay type: biochemical; conditions: partial-competitive model; FIG. 3F
Method: Following 15 min at 37° C., 0.5 μl 1 mg/ml heparin was added, and, following a further 2 min at 37° C., 1 μl of 0.25-5 mM (γ-AmNS)UTP (Molecular Probes) was added, and reaction mixtures were transferred to sub-micro fluorometer cuvettes (Starna Cells). Following 2 min at 37° C., RNA synthesis was initiated by addition of 2.5 μl 10 mM ApA, and fluorescence emission intensity was monitored 5 min at 37° C. [excitation wavelength=360 nm and emission wavelength=500 nm; excitation and emission slit widths=4 nm; QuantaMaster QM1 spectrofluorometer (PTI)]. The quantity of UMP incorporated into RNA was determined from the quantity of (γ-AmNS)UTP consumed, which, in turn, was calculated as follows (Schlageck et al., (1979) J. Biol. Chem. 254, 12074-12077): (γ-AmNS)UTPconsumed=[(γ-AmNS)UTP0](Ft−F0)/(12.4×F0) (1) where (γ-AmNS)UTP0 is the quantity of (γ-AmNS) UTP at time 0, F0 is the fluorescence emission intensity at time 0, and Ft is the fluorescence emission intensity at time t. Data were fit to full-competitive, partial-competitive, full-noncompetitive, partial-noncompetitive, full-uncompetitive, partial-uncompetitive, full-mixed, and partial-mixed models of inhibition as in the preceding section.

Microcin J25 [MccJ25]
Ki (RNAP holoenzyme [1]): 1.4 ± 0.2 µM | Kd (DAC-σ^70 RNAP holoenzyme): 0.5 µM | Ki (RNAP holoenzyme [2]): 1.2 ± 0.3 µM
